The NIST ThermoML archive (doi:10.1016/j.jct.2008.06.001)

Key:
[1] = 101.33 kPa, Liquid; for speed of sound: Sing-around technique in a fixed-path interferometer
[2] = xn = mol fraction of the nth substance listed; settings: 101 kPa, Liquid

CCCCOCCCC [dibutyl ether]
[1]
Settings	mass density [kg/m3]	speed of sound [m/s]
293.15 K	768.468	1181.8
298.15 K	764.17	1161.2
303.15 K	759.829	1142.1

CCCCOCCCC [dibutyl ether] + CCCCCCCCO
[2]
Settings	mass density [kg/m3]
293.15 K, x2 = 0.1021	774.774
293.15 K, x2 = 0.1491	777.553
293.15 K, x2 = 0.1997	780.513
293.15 K, x2 = 0.2473	783.26
293.15 K, x2 = 0.2979	786.177
293.15 K, x2 = 0.3497	789.095
293.15 K, x2 = 0.4017	792.053
293.15 K, x2 = 0.4493	794.746
293.15 K, x2 = 0.4972	797.47
293.15 K, x2 = 0.5504	800.439
293.15 K, x2 = 0.6001	803.218
293.15 K, x2 = 0.6455	805.774
293.15 K, x2 = 0.6985	808.712
293.15 K, x2 = 0.7484	811.495
293.15 K, x2 = 0.7994	814.29
293.15 K, x2 = 0.8484	816.969
293.15 K, x2 = 0.9004	819.813
293.15 K, x2 = 0.949	822.438
298.15 K, x2 = 0.0511	767.422
298.15 K, x2 = 0.1005	770.448
298.15 K, x2 = 0.1486	773.364
298.15 K, x2 = 0.1998	776.391
298.15 K, x2 = 0.2458	779.081
298.15 K, x2 = 0.2978	782.1
298.15 K, x2 = 0.3497	785.119
298.15 K, x2 = 0.4009	788.072
298.15 K, x2 = 0.4475	790.743
298.15 K, x2 = 0.4956	793.501
298.15 K, x2 = 0.5441	796.3
298.15 K, x2 = 0.603	799.619
298.15 K, x2 = 0.6477	802.183
298.15 K, x2 = 0.6984	805.007
298.15 K, x2 = 0.7506	807.961
298.15 K, x2 = 0.7997	810.704
298.15 K, x2 = 0.8461	813.276
298.15 K, x2 = 0.8994	816.228
298.15 K, x2 = 0.9503	819.023
303.15 K, x2 = 0.0491	762.975
303.15 K, x2 = 0.1041	766.404
303.15 K, x2 = 0.1506	769.248
303.15 K, x2 = 0.1996	772.204
303.15 K, x2 = 0.2461	774.957
303.15 K, x2 = 0.2978	778.044
303.15 K, x2 = 0.3507	781.141
303.15 K, x2 = 0.4139	784.859
303.15 K, x2 = 0.4496	786.924
303.15 K, x2 = 0.5145	790.697
303.15 K, x2 = 0.5478	792.645
303.15 K, x2 = 0.5967	795.447
303.15 K, x2 = 0.6501	798.548
303.15 K, x2 = 0.6989	801.324
303.15 K, x2 = 0.7495	804.196
303.15 K, x2 = 0.7992	807.033
303.15 K, x2 = 0.8481	809.788
303.15 K, x2 = 0.8984	812.611
303.15 K, x2 = 0.9488	815.417
